# PTHR1 ag: activates the human parathyroid hormone receptor PTHR1. HEK293 GP2 PTHR1 cells, GloSensor cAMP luminescence, 1 h. Q03431. Potency, µM (top dose mostly 115 µM), for inactives: at the top dose activation, hits mostly activators. actives 0.075% (n = 410,000); note: potency is the fitted concentration of half-maximal effect; nearly all actives have a fitted effect of over 55% in size
#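 HEK-293-derived GP2 cells expressing PTHR1 and a GloSensor cAMP reporter, 3,000/well, plated overnight, given luciferin plus IBMX (each 0.5 mM as added) for 1 h at 37 °C, then compound for 1 h at 37 °C. Luminescence was read after 15 min at room temperature.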
# miR-21 reporter: raises the signal of a miR-21 reporter | HeLa miR-21 FLuc reporter, luciferase, 48 h | Potency, µM (doses to about 38.3 µM), for the others: at the highest dose reporter change, positive = more light | 340,000 tested, under 10 active | AID 2288; active = well fitted rising curve with a large enough effect; inconclusive = small, poorly fitted or top-dose-only effect; inactive = no such curve, though single readings can be large or run the other way;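 also: % of control where 0% means no effect; miR-21 action dims this reporter so a rising signal means less miR-21 action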
#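 Using DMEM plus 10% FBS, HeLa miR-21-FLuc cells are incubated with test compounds (final up to about 40uM) for 48 hours; firefly luciferase signal is then imaged following reagent-mediated lysis.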
# GLP-1R inv ag: acts as inverse agonist at human GLP-1 receptor; HEK293 GLP-1R CRE-luciferase, luminescence, 24 h; GLP-1R form is constitutively active; actives 1.6% (n = 410,000); Potency, µM (top dose mostly 38.3 µM), for the others: at the highest dose activity change, negative = inhibition, usual class: inhibitors; note: potency is the fitted concentration of half-maximal effect; % is set by controls: 0 for no effect and ±100 for the full control effect; nearly all actives have a fitted effect of over 55% in size
#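 Stable HEK293 clone (constitutively active GLP-1R + cAMP-response luciferase); 200 cells/uL plated, 12 h pre-culture, compound 24 hr, 37 deg C/5% CO2; detection reagent 12 min RT; luminescence.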
# Pin1 inh: human Pin1 inhibition; Q13526; Pin1 FP peptide displacement, HiFluor488, 10 min; Potency, µM (series often up to 115 µM), for inactives: at the highest dose activity, negative = inhibition, usual class: inhibitors; actives 0.009% (n = 390,000); AID 504891; active = well fitted inhibition curve with a large enough effect in the polarisation, with a control signal flat, not every such curve was filed as active; inconclusive = small, poorly fitted or top-dose-only effect, or effect the other way, or a change in a side signal; inactive = no such curve, though single readings can be large or run the other way; the % refers to the polarisation; note: potency is the fitted concentration of half-maximal effect; % is set by controls: 0 for no effect and ±100 for the full control effect
# GLP1R cytotox: cytotoxic in the GLP-1 receptor inverse agonist counter-screen | HEK293 cAMP-luciferase reporter cells, luminescence, 24 h | Potency, µM (titrated, usually from 38.3 µM), for inactives: at the highest dose activity change, negative = inhibition, usual class: inhibitors | actives 0.13% (n = 410,000) | AID 624418;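 note: loss of luciferase light is scored as toxicity; potency is the fitted concentration of half-maximal effect; % is set by controls: 0 for no effect and ±100 for the full control effect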
#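 To flag toxic compounds, the library was rerun on cells for 24 hr at 37 deg C and 5% CO2. Viability-linked luminescence was captured 12 min after adding luciferase detection reagent.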
# GLP-1R agonist: activates the human GLP-1 receptor; P43220; HEK293 GLP-1R CRE-luciferase, luminescence, 4-6 h; cells express a hypersensitive GLP-1R form; Potency, µM (titrated, usually from 45.6 µM), without a hit: top-dose activation, usual class: activators; actives 0.007% (n = 380,000); AID 624172; note: potency is the fitted concentration of half-maximal effect; % of control where 0% means no effect
# The depositor's hits bear a star; i = inactive; ? = inconclusive; · = no result; [ ] = dose if it differs, or a comment. Sampled rows, rich in hits. Any-hit rate of the full collection: about 1.7%. Unless noted, calls come from the whole dose curve; as a rule, active = well fitted curve in the direction sought with a large enough effect; inconclusive = small, poorly fitted or top-dose-only effect, or another doubt; inactive = no such curve, though single readings can be large; an effect the other way counts as inactive or inconclusive.
SMILES,PTHR1 ag,miR-21 reporter,GLP-1R inv ag,Pin1 inh,GLP1R cytotox,GLP-1R agonist
CCN=C1S/C(=C\c2cn(CC)c3ccccc23)C(=O)N1CC,-1%,-11%,?,19%,-9%,14µM*
CCOC(=O)c1sc(NC(=S)NC(=O)CC(C)C)cc1C,-3%[57.5 µM],-35%,10µM*,12%,?,4%
O=C(CSc1nc2c([nH]c3ccccc32)c(=O)n1-c1ccccc1)N1CCCC1,i,-2%,6%,0%,-1%,·
O=C(CSc1ncnc2c1cnn2CCc1ccccc1)Nc1cccc(C(F)(F)F)c1,-20%[57.5 µM],-4%,7.9µM*,11%,-30%,-23%
CC(C)(C)C(=O)CSc1ncnc2c1cnn2Cc1ccccc1,-21%,-1%,3.5µM*,-7%,1%,21%
Cc1c(Cl)cccc1NC(=O)CSc1ncnc2c1cnn2CCc1ccccc1,i,-3%,?,-1%,-13%,9%
CCC(Cc1c(I)cc(I)c(O)c1I)C(=O)O (stereo not given),·,·,·,·,·,14%
CC(C)c1ccc(S(=O)(=O)NCc2nc3cccnc3n2Cc2ccc(F)cc2)cc1,-20%,5%,-17%,1%,-10%,·
CC1CCN(C(=O)c2cc3c(ccc4ccccc43)o2)CC1,-33%,-31%,10µM*,-11%,25%,-1%
CCOC(=O)C1CCN(C(=O)c2cc3c(ccc4ccccc43)o2)CC1,-34%,-59%,13%,1%,0%,18%
COc1cccc(NC(=O)Cn2nnc(-c3nc(-c4ccccc4)no3)c2N)c1,?,-33%,16%,38%,1%,·
CCOC(=O)N1CCN(C(=O)CSc2cc(C)nc3c(-c4ccccc4OC)c(C)nn23)CC1,-6%[57.5 µM],-1%,13µM*,-3%,?,6%
O=C(Nc1nn(Cc2ccc(Cl)cc2)cc1Br)c1ccc(COc2ccccc2Cl)o1,i,23%,5µM*,13%,5%,-3%
Cc1ccc(S(=O)(=O)N2CCN(c3nc(-c4cncnc4)nc4ccccc34)CC2)cc1,·,·,·,-3%,·,·
O=S(=O)(NCCSc1ccccc1)c1ccc(F)cc1,i,-6%,10µM*,-1%,19%,13%

# Next section, starting with the last 6 of the part before.
SMILES,PTHR1 ag,miR-21 reporter,GLP-1R inv ag,Pin1 inh,GLP1R cytotox,GLP-1R agonist
CCOC(=O)C1CCN(C(=O)c2cc3c(ccc4ccccc43)o2)CC1,-34%,-59%,13%,1%,0%,18%
COc1cccc(NC(=O)Cn2nnc(-c3nc(-c4ccccc4)no3)c2N)c1,?,-33%,16%,38%,1%,·
CCOC(=O)N1CCN(C(=O)CSc2cc(C)nc3c(-c4ccccc4OC)c(C)nn23)CC1,-6%[57.5 µM],-1%,13µM*,-3%,?,6%
O=C(Nc1nn(Cc2ccc(Cl)cc2)cc1Br)c1ccc(COc2ccccc2Cl)o1,i,23%,5µM*,13%,5%,-3%
Cc1ccc(S(=O)(=O)N2CCN(c3nc(-c4cncnc4)nc4ccccc34)CC2)cc1,·,·,·,-3%,·,·
O=S(=O)(NCCSc1ccccc1)c1ccc(F)cc1,i,-6%,10µM*,-1%,19%,13%
Cc1ccc(NC(=O)C2(c3ccc([N+](=O)[O-])cc3)CCCC2)cc1,-36%,-3%,10µM*,0%,-25%,-2%
Cc1ccc(NC(=O)C2(c3ccccc3)CCCC2)nc1,i,·,3.5µM*,-1%,-8%,0%
Cc1ccc(OCC(=O)Nc2ccc([N+](=O)[O-])cc2)cc1,i,-27%,-14%,4%,-7%,0%
CCn1c(NCc2ccccc2NS(=O)(=O)c2ccc(C)cc2)nc2ccccc21,-22%,20%,?,6%,-27%,-5%
CCn1c(NCc2cc(Br)ccc2NS(=O)(=O)c2ccc(C)cc2)nc2ccccc21,-29%,23%,11µM*,12%,-30%,-32%
CC(C)(C)c1ccc(C(=O)CCC(=O)NCc2ccccc2)cc1,-19%,·,7.9µM*,41%,-20%,15%
Cc1ccc(C(=O)CCC(=O)NCc2ccccc2)cc1,-6%,1%,-5%,0%,7%,-2%
CC1Cc2cc(S(=O)(=O)CCC(=O)Nc3ccc(F)cc3Cl)ccc2N1C(=O)C1CC1 (stereo not given),-18%,7%,4%,-1%,-2%,·
Cc1ccc(N2C(=O)C(CN3CCCC3)C2c2ccccc2)cc1 (stereo not given),-7%,-11%,10µM*,-4%,-7%,6%
CCCc1cc(C(=O)Nc2ccc(C(=O)c3ccccc3)cc2)n(C)n1,-45%,27%,?,-1%,0%,2%
CCCc1cc(C(=O)Nc2ccc(C(=O)c3ccc(F)cc3)cc2)n(C)n1,-30%,26%,8.9µM*,2%,-4%,-3%
Cc1ccc(Cn2nnnc2CN2CCC(c3nc4ccc(Cl)cc4[nH]3)CC2)cc1,-18%,23%,11µM*,6%,15%,-13%
O=C(CCl)N(C1CCCC1)C1CCS(=O)(=O)C1 (stereo not given),-11%,?,4.5µM*,·,6%,-2%
CCC1CCCCN1Cc1nc2c(c(=O)n(C)c(=O)n2C)n1Cc1c(F)cccc1Cl (stereo not given),·,·,·,3%,·,·
OCCN(CCO)CC(O)COc1ccc(C23CC4CC(CC(C4)C2)C3)cc1 (stereo not given),-1%,18%,2.8µM*,0%,?,?
O=C(Nc1ccc(Cl)cc1)NC1CCCC1Cc1ccco1 (stereo not given),-40%,0%,5.6µM*,23%,10%,-7%
O=C(Nc1ccc(Cl)cc1)NC1CCCCC1Cc1ccco1 (stereo not given),-18%[57.5 µM],20%,10µM*,6%,-30%,-13%
CCn1cc(S(=O)(=O)c2ccc(OC)cc2)c(=O)c2cc(F)c(N3CCC(C)CC3)cc21,-4%,-3%,13%,2%,-4%,·
CC(C)NC1=C(Cl)C(=O)c2ccccc2C1=O,-36%[57.5 µM],2%,0%,1%,5.6µM*,11%
O=[S+]([O-])(c1ccc2c(c1)OCCO2)N1CCN([S+](=O)([O-])c2c(O)cc(F)cc2F)CC1,·,·,·,2%,·,·
CC(=O)Nc1ccc(OCC(=O)N2CCC(Cc3ccccc3)CC2)cc1,-36%,7%,13µM*,4%,-1%,7%
COc1ccccc1C(=O)Nc1ccc(OCC(=O)N2CC(C)CC(C)C2)cc1 (stereo not given),-69%,·,10µM*,-5%,4%,-5%
O=C(OCC#CCSc1nnc(-c2cccc3ccccc23)o1)C1CCC1,·,·,·,0%,·,·
CCCCn1cc(S(=O)(=O)c2ccc(C)c(C)c2)c(=O)c2cc(F)c(N(CC)CC)cc21,i,?,13%,6%,-2%,·
Cc1ccc(CNC(=O)c2cc3c(s2)-c2ccccc2SC3)cc1,i,7%,?,12%,-11%,·
Cc1cc(Br)ccc1NC(=O)c1cc2c(s1)-c1ccccc1SC2,i,17%,10µM*,14%,-7%,·
COc1cccc(NC(=S)Nc2ccc(O)cc2)c1,-4%,-26%,10%,-4%,5%,-3%
COc1cccc(NC(=S)NC2CC(C)CC(C)(C)C2)c1 (stereo not given),-6%,·,8.9µM*,·,?,0%
CCOC(=O)c1ccc(N2C(=O)[C@@H](c3ccccc3)[C@H]2c2ccccc2)cc1,-11%,·,5µM*,6%,5%,-2%
CCc1ccc(S(=O)(=O)Nc2ccc(O)c3c(=O)cc(-c4ccccc4Cl)oc23)cc1,i,5%,?,?,1%,-6%
